Compound activity (PubChem BioAssay)
miR-21 FLuc: miR-21 reporter, rising signal | AID 2288 | HeLa miR-21 FLuc reporter, luciferase, 48 h | 340,000 tested, under 10 active | Potency, µM (titrated, usually from 38.3 µM), for the others: at the top dose reporter change, positive = more light; active = well fitted rising curve with a large enough effect; inconclusive = small, poorly fitted or top-dose-only effect; inactive = no such curve, though single readings can be large or run the other way;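 also: % of control where 0% means no effect; miR-21 action dims this reporter so a rising signal means less miR-21 action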
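HeLa miR-21-FLuc reporter line, endogenous miR-21; 2000 cells/well in DMEM/10% FBS; compound titration up to ~40uM final, 48 h, 37 degree Celsius; luciferase detection reagent, 15 min lysis, CCD luminescence.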
KDM4E inh: inhibitors of human JMJD2E histone demethylase | B2RXH2 | JMJD2E catalytic domain, FDH-coupled NADH fluorescence (FDH is formaldehyde dehydrogenase) | Potency, µM (titrated, usually from 57.1 µM), for inactives: at the top dose activity change, negative = inhibition, hits mostly inhibitors | actives 1.6% (n = 230,000); active means well fitted inhibition curve with a large enough effect, not every such curve was filed as active; inconclusive means small, poorly fitted or top-dose-only effect, or another doubt; inactive means no such curve, though single readings can be large or run the other way;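 further: potency means the concentration at half of the fitted maximal effect; 0% = wells with enzyme and -100% = buffer wells without enzyme; nearly all actives have a fitted effect of over 50% in size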
Lamin A splicing: LMNA splicing modulation; HeLa LMNA splicing GFP/RFP minigene ratio, 48 h; Potency, µM (series often up to 46.1 µM), inactives show top-dose ratio change, negative = inhibition, usual class: inhibitors; actives 0.01% (n = 200,000); AID 1487; active means well fitted inhibition curve with a large enough effect in the signal ratio, with a control signal flat, not every such curve was filed as active; inconclusive means small, poorly fitted or top-dose-only effect, or effect the other way, or a change in a side signal; the % refers to the signal ratio; further: potency means the concentration at half of the fitted maximal effect; on the % scale 0 is the no-effect control and ±100 the full control effect
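S3 HeLa stable clones carrying a lamin A-EGFP splicing minigene plus DsRed2 were seeded at 600 cells/well in Opti-MEM with 2% FBS, pin-dosed and incubated 48 h at 37°C. Acumen cytometry (488 nm) gave the GFP/RFP total-intensity ratio.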
ALDH1A1 block: blocks purified human ALDH1A1 activity; P00352; Purified ALDH1A1, NADH fluorescence, propionaldehyde substrate; Potency, µM (titrated, usually from 75.3 µM), for the others: at the highest dose activity, negative = inhibition, most hits filed as inhibitors; actives 7.3% (n = 220,000); AID 1030; active means well fitted inhibition curve with a large enough effect, not every such curve was filed as active; inconclusive means small, poorly fitted or top-dose-only effect, or another doubt; inactive means no such curve, though single readings can be large or run the other way;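 further: potency means the concentration at half of the fitted maximal effect; plate controls were no enzyme wells and a reference inhibitor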
G9a block: G9a (human) methyltransferase inhibition; G9a H3K9 monomethylation, AlphaScreen, 2 h; Potency, µM (highest dose often 102 µM), without a hit: at the top dose activity, negative = inhibition, usual class: inhibitors; actives 8.8% (n = 350,000); further: potency means the concentration at half of the fitted maximal effect; on the % scale 0 is the no-effect control and ±100 the full control effect; nearly all actives have a fitted effect of over 75% in size
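G9a (20 nM) was preincubated 15 min with compound, then reacted 2 h at room temperature with 500 nM biotin-H3K9 peptide and 20 µM SAM. Monomethyl-H3K9 detected by AlphaScreen using anti-H3K9me1 antibody.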
Sfp PPTase inh: qHTS Assay for Inhibitors of Bacillus subtilis Sfp phosphopantetheinyl transferase (PPTase) | Biochemical Sfp PPTase activity, qHTS | Potency, µM, without a hit: max response, negative = inhibition, most hits filed as inhibitors | actives 3.5% (n = 310,000) | AID 1490, 2009 | 4'-phosphopantetheinyl transferase ffp (Bacillus subtilis), Q9F4F7; active = well fitted inhibition curve with a large enough effect; inconclusive = small, poorly fitted or top-dose-only effect, or another doubt; inactive = no such curve, though single readings can be large or run the other way;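 note: the enzyme is Sfp with the accession as filed and its product quenches rhodamine fluorescence; potency is the fitted concentration of half-maximal effect; 0% = enzyme reaction without inhibitor and -100% = no enzyme wells; top concentration of the series not given in the record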
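Compounds were incubated with enzyme (final 15 nM) for 15 min at room temperature before substrate addition started the reaction. Fluorescence at 525 nm excitation, 598 nm emission was recorded immediately and after 30 minutes.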
Starred values were filed as active, the others as inactive; ? = inconclusive; . = no result; [ ] = another dose, or the depositor's remark. Rows were chosen to be rich in hits. Some 13% of all compounds tested hit in one or more screens of this group. Unless noted, the call rests on the fitted dose curve; in most records, active means well fitted curve in the direction sought with a large enough effect; inconclusive means small, poorly fitted or top-dose-only effect, or another doubt; inactive means no such curve, though single readings can be large; an effect the other way counts as inactive or inconclusive.

molecule | miR-21 FLuc | KDM4E inh | Lamin A splicing | ALDH1A1 block | G9a block | Sfp PPTase inh
COc1ccc(CCNC(=O)c2cc(Nc3ccccc3)nc3ccccc23)cc1OC | 26.3% | . | -1.3%[46 µM] | . | -0.2%[59 µM] | .
Cc1cc(C)c2c(N)c(C(=O)c3ccc(Br)cc3)oc2n1 | -12.0% | -5.8% | . | . | 35.5µM* | 0.7%
CCOC(=O)c1cccnc1SCc1cc(=O)n2ccccc2n1 | -65.3% | ? | -2.0% | -3.4% | -30.3% | 18.1%
CC(OC(=O)c1cccnc1SCc1cc(=O)n2ccccc2n1)c1ccccn1 (stereo not drawn) | -33.5% | ? | -12.6% | ? | 50.1µM* | 13.4%
Cc1cc(C)c2c(=O)cc(C(=O)NCc3ccc(S(N)(=O)=O)cc3)oc2c1 | -17.4% | . | . | . | 23.1%[59 µM] | .
CN(CC(=O)Nc1ccccc1Br)C(=O)c1ccc(COc2ccccc2)cc1 | -14.2% | . | . | . | 8.3% | -2.8%
CC1CCc2[nH]c3ccc(C(=O)N(C)CC(=O)Nc4ccccc4Br)cc3c2C1 (stereo not drawn) | . | . | . | . | 44.7µM* | .
COc1ccc2cc(C(=O)N(C)CC(=O)Nc3ccccc3Br)ccc2c1 | . | . | . | . | 8.91µM* | .
O=C(CSc1nccn1Cc1ccc(Cl)cc1)NC1CCCC1 | 5.1% | . | -2.0%[46 µM] | . | -29.4%[59 µM] | .
CCOc1ccc(NC(=O)COc2ccc(S(=O)(=O)NC3CCCCC3)cc2)cc1 | 23.6% | . | . | . | -27.2%[59 µM] | .

3 of the compounds above, with values under each structure:
The line under a structure holds: miR-21 FLuc | KDM4E inh | Lamin A splicing | ALDH1A1 block | G9a block | Sfp PPTase inh
O=C(CSc1nccn1Cc1ccc(Cl)cc1)NC1CCCC1
→ 5.1% | . | -2.0%[46 µM] | . | -29.4%[59 µM] | .
Cc1cc(C)c2c(=O)cc(C(=O)NCc3ccc(S(N)(=O)=O)cc3)oc2c1
→ -17.4% | . | . | . | 23.1%[59 µM] | .
Cc1cc(C)c2c(N)c(C(=O)c3ccc(Br)cc3)oc2n1
→ -12.0% | -5.8% | . | . | 35.5µM* | 0.7%

Remaining list, next part
molecule | miR-21 FLuc | KDM4E inh | Lamin A splicing | ALDH1A1 block | G9a block | Sfp PPTase inh
CC(C)CN=c1cc(-c2ccccc2)oc2ccc(Cl)cc12 | -18.2% | -21.6% | 3.3% | -2.8% | 3.2%[12.7 µM] | -9.3%
C/C(CCc1oc2ccc(Br)cc2c1-c1ccc(C)o1)=N/O | -13.9% | -4.4% | ? | ? | 35.5µM* | ?
CC(=O)CCc1oc2ccc(C)cc2c1-c1ccccc1 | -1.3% | 6.7% | . | . | 326.1% | -8.8%
C/C(CCc1oc2ccc(Cl)cc2c1-c1ccc(C)o1)=N\O | -5.6% | -29.1% | ? | 4.47µM* | ? | 15.8µM*
Cc1nc(-c2ccc(Cl)cc2)sc1CCNC(=O)C(=O)Nc1ccc2c(c1)OCO2 | -33.4% | . | ? | . | -4.8%[59 µM] | .
COC(=O)C(Cc1ccc(O)cc1)NC(=O)c1ccccc1OC (stereo not drawn) | -6.4% | -4.6% | 10.7% | 28.2µM* | -35.8%[0.0925 µM] | 10.2%
COC(=O)C(Cc1ccc(O)cc1)NC(=O)c1ccccc1 (stereo not drawn) | 0.4% | 0.4% | 6.7% | 2.8% | 26.6%[59 µM] | 7.6%
COc1ccc(C(=O)Nc2ccccc2C(=O)NC(Cc2ccc(O)cc2)C(=O)NNC(=O)c2ccccc2Cl)cc1 (stereo not drawn) | -3.0% | ? | -6.8% | 5.2% | -27.5%[59 µM] | 44.7µM*
COc1ccc(C(=O)NNC(=O)C(Cc2ccc(O)cc2)NC(=O)c2ccccc2NC(=O)c2ccc(OC)cc2)cc1 (stereo not drawn) | -0.4% | ? | 9.3% | ? | -48.7% | 22.4µM*
CN(C)c1ncc2nc(-c3cc(F)cc(F)c3)c(=O)n(CCc3ccccc3)c2n1 | . | . | 1.6% | ? | 6.1%[0.501 µM] | -19.0%
O=C(NCc1ccc(F)cc1)C1CCC(CNS(=O)(=O)c2ccccc2)CC1 (stereo not drawn) | 5.2% | . | . | . | 19.2% | 6.2%
CC(C)CC(O)(CC(C)C)C(=O)NNc1ccccc1 | -10.1% | -0.4% | ? | 7.1% | ? | 13.6%
CC(C)CCC(O)(CCC(C)C)C(=O)NNc1ccccc1 | -5.0% | -1.2% | ? | -0.4% | 50.1µM* | 11.0%
CCOC(=O)N1CCN(C(=O)c2ccc3c(SCC(=O)O)c4c(nc3c2)CCCC4)CC1 | -6.9% | -13.9% | 8.8% | -6.0% | 39.8µM* | 14.0%
O=C(O)CSc1c2c(nc3cc(C(=O)N4CCOCC4)ccc13)CCCC2 | -6.3% | ? | 12.8%[0.0737 µM] | -1.6% | 33.8%[0.501 µM] | 50.1µM*
CC(C)OCCCN1CC(=O)N2C(c3ccccc3)c3[nH]c4ccccc4c3C[C@H]2C1=O (stereo partly drawn) | 3.4% | . | . | . | -5.7% | 3.0%
O=c1nc2n(c3ccc([N+](=O)[O-])cc13)CCCCC2 | 5.0% | -14.1% | . | 1.1% | 9.6% | 4.8%
CN(c1ccccc1)c1ccc(/C=C(\C#N)c2nnc3n2CCCCC3)cc1[N+](=O)[O-] | -2.7% | -2.7% | ? | ? | 39.8µM* | -8.5%
N#C/C(=C\c1cccc([N+](=O)[O-])c1)c1nnc2n1CCCCC2 | 13.2% | ? | ? | 20µM* | 10.3%[59 µM] | 9.6%
CN1CCC2(CC1)N=C(c1ccc(F)cc1)C(=S)N2C(=O)c1ccc(C(C)(C)C)cc1 | -9.0% | ? | ? | 17.8µM* | 10µM* | 50.1µM*
CC(C)(C)c1ccc(C(=O)N2CCNCC2)cc1 | -7.9% | -0.7% | -4.1% | 9.5% | 7.7%[12.7 µM] | -13.0%
Cc1cccc(N(Cc2ccccc2)C(=O)c2cc(S(=O)(=O)N3CCOCC3)ccc2Cl)c1 | . | . | . | . | -33.6% | .
Cc1nc2nc(C)n(-c3ccccc3)c2s1 | -9.4% | -4.2% | 12.7% | 8.2% | 12.6µM* | 4.2%
Cc1nc2ccccc2n1-c1ccccc1 | -7.6% | 7.7% | -2.5% | 8.5% | -6.5% | 1.1%
O=C(Cc1ccc([N+](=O)[O-])cc1)Nc1ccc(Cl)cc1 | -8.9% | -31.4% | ? | ? | 39.8µM* | -41.6%
O=C(Cc1ccc(Br)cc1)Nc1ncc([N+](=O)[O-])s1 | 7.6% | -8.3% | . | . | 28.2µM* | -28.8%
O=C(Cc1ccc(Cl)cc1)Nc1ncc([N+](=O)[O-])s1 | -14.1% | 6.7% | ? | ? | 35.5µM* | -18.7%
O=C(COc1ccc(Cl)cc1)Nc1ncc([N+](=O)[O-])s1 | 18.7% | -0.6% | ? | 3.8% | ? | -2.8%
O=C(C/C=N\OCc1ccc([N+](=O)[O-])cc1)Nc1ccc(Cl)cc1 | 2.6% | 10.1% | ? | ? | 3.8% | -7.4%
Cc1cnc(NC(=O)Cc2ccc(Br)cc2)s1 | -0.7% | . | . | . | 28.0% | 10.7%
Cc1c(Cl)cccc1NC(=O)CSc1nc(=O)[nH]c2c1CCC2 | 7.2% | . | 0.5%[46 µM] | . | 21.6%[59 µM] | .
CC1(C)Cc2c(c(=S)nc(-c3ccccc3)n2Cc2cccnc2)CO1 | -2.7% | -3.1% | . | . | 35.5µM* | 1.9%
COc1ccc(-c2nc(=S)c3c(n2Cc2cccnc2)CC(C)(C)OC3)cc1 | 4.9% | 4.2% | . | . | -5.1% | 18.3%
O=C(Cn1cnc([N+](=O)[O-])c1)Nc1ccc(F)c(Cl)c1 | -1.6% | . | . | . | 50.1µM* | -18.8%
O=C(O)CC1(CC(=O)Nc2ccc(F)c(Cl)c2)CCCCC1 | 6.8% | 4.2% | . | 3.98µM* | . | 18.5%
Cc1nc(-c2cccc(S(=O)(=O)N3CCC(C(=O)NCc4ccccc4)CC3)c2)no1 | 12.7% | . | 12.6%[46 µM] | . | 11.1%[59 µM] | .
CC(=O)Nc1nc2n(n1)C(c1ccc(Cl)cc1)C=C(C)N2 (stereo not drawn) | -0.5% | ? | 0.8% | ? | ? | 56.2µM*
